Patent US6403805B1 (Janssen Pharmaceutica N.V., priority 1995, dated 2002)

Protein sequences, listed by entry. Tags and fused reporters are not part of them.
UniProt Q07343, whole entry: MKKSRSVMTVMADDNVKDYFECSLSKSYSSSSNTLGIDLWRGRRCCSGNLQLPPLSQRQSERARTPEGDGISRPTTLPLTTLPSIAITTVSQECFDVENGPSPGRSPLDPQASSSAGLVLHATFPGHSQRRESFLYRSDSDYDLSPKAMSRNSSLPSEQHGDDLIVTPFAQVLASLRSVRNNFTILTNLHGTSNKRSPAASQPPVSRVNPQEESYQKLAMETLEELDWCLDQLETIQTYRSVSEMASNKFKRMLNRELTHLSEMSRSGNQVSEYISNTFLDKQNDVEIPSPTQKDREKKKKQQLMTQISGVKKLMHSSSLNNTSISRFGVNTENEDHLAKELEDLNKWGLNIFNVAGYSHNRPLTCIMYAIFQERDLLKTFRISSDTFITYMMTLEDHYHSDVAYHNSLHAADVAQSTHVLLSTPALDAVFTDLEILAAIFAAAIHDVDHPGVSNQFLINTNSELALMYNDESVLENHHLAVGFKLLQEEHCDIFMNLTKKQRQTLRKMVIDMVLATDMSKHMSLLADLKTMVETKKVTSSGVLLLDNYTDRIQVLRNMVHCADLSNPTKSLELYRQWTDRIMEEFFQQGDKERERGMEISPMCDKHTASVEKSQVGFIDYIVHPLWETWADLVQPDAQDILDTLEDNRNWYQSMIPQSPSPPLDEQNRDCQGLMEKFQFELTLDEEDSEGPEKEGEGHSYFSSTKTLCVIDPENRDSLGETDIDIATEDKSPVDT

Legend:
[1] = test system: dextran-induced oedema formation in mouse ear; test: Dextran-induced oedema formation in mouse ear; type: in vivo, Male Swiss mice; conditions: oral dose of 5 mg/kg in PEG-200, one hour before i.v. dextran T500/pontamine sky-blue; vs background blueing value
Protocol: Dextran-induced oedema formation in mouse ear Systemic injection of dextran T500 in normal, non-sensitized mice elicits increased vascular permeability, leading to extravasation and oedema of the extremities. When dextran is injected together with a blue dye, blueing of the ears is the most prominent feature of oedematous response. Male Swiss mice weighting 24-26 g were orally pretreated with the test compound dissolved in PEG-200 at different concentrations or solvent. One hour later, the mice were given an intravenous injection with an isotonic saline solution containing 12 mg/ml dextran T500 and 2.6 mg/ml pontamine sky-blue dye, in a volume of 0.1 ml per 10 g body weight. One hour and forty-five minutes later, the animals are sacrificed by ether and their ears removed. Extraction and quantification of the extravasated dye is done as described by Van Wauwe and Goossens (Drug Dev. Res. 1986, 8, 213-218). The extravasation of the dye is characterized by the blueing value which is defined as the concentration of the extracted dye in both ears. The background blueing value was determined once as the mean blueing value obtained by injecting a group of mice with a saline solution containing only dextran T500 and the blue dye. Table 6 lists the percentage inhibition of the extravasation of the dye when compared with the background extravasation of the dye when the test compound was administered at a dose of 5 mg/kg. The test compounds indicated by an asterisk (*) were tested at a dose of 2.5 mg/kg

[2] = molecular target: recombinant human MNL phosphodiesterase type IV B (Homo sapiens, UniProt Q07343); test: Inhibition of recombinant human mononuclear lymphocyte (MNL) phosphodiesterase type IV B produced in insect cells with a baculovirus vector; conditions: read-out: IC50 (in M); recombinant human MNL PDE IV B; 0.8 μM 3H-cAMP, pH 8, 37° C.; calculated graphically
Protocol: Inhibition of recombinant human mononuclear lymphoctye (MNL) phosphodiesterase type IV B produced in insect cells with a baculovirus vector
The alleviating and/or curing effect of the instant compounds on allergic and atopic diseases was assessed by an in vitro assay system to detect an inhibiting effect on the recombinant human MNL phosphodiesterase type IV B.
Seventy-two hours after infection with recombinant baculovirus, the insect cells were harvested and pelleted at 500 g for 5 minutes. The cells were lysed in 10 ml lysis-buffer consisting of 20 mM Tris, 10 mM EGTA, 2 mM Na2EDTA, 1% Triton-X-100, 1 mM Na3VO4, 10 mM NaF, 2 μg/ml of leupeptine, pepstatine and aprotinine, 0.3 μg/ml benzamidine and 100 μg/ml TPCK pH 7.5. After 5 minutes on ice, solubilized cells were centrifuged at 4000 rpm for 15 minutes at 4° C. The resulting supernatant was filtered through a 0.45 μm filter (Millipore) and brought to TBS buffer (50 mM Tris, 150 mM NaCl pH 7.4).
The supernatant containing phosphodiesterase (PDE) type IV B, was subsequently loaded onto a 5 ml anti-FLAG-M2 affinity gel column, previously activated with 5 ml 100 mM glycine pH 3.5 and equilibrated with 20 ml 50 mM Tris, 150 mM NaCl pH 7.4. After washing the column with equilibration buffer, PDE IV was eluted in 1.5 ml fractions containing 37.5 μl 1M Tris pH 8. The fractions were dialyzed overnight against 20 mM Tris, 2 mM Na2EDTA and 400 mM NaCl pH 7.5 and tested for PDE IV activity. Identification was done on SDS PAGE and Western Blot (anti-FLAG-M2). Active fractions were pooled, brought to 10% glycerol and stored at −70° C.
The incubation mixture (pH 8) (200 μl) contained 20 mM Tris, 10 mM magnesium sulphate, 0.8 μM ^3H-cAMP (310 mCi/mmole) and the phosphodiesterase type IV, the amount depending on the enzymatic activity.
When the effect of different compounds on phosphodiesterase activity was tested, the medium without cAMP was incubated with the compound(s) or its carrier (DMSO-1% final concentration) for 5 min. The enzymatic reaction was started by addition of ^3H-cAMP and stopped 10 min later after transferring the microtiter-plate in a waterbath at 100° C. for 5 min. After cooling to room temperature, alkaline phosphatase (0.25 μg/ml) was added and the mixture was incubated at 37° C. for 20 min. 100 μl of the mixture was subsequently applied to a GF-B filter-microtiter-plate (Millipore) filled with 300 μl DEAE-Sephadex-A25 suspension. The plate was washed 3 times with 75 μl 20 mM Tris pH 7.5 and the filtrates were collected for counting in the Packard Top Count scintillation counter.
The inhibiting effect of the present compounds on recombinant human MNL phosphodiesterase PDE IV B was measured at different concentrations of the instant compounds. The IC50 values (expressed in M) were calculated graphically from the thus obtained inhibition values.

Row | Compound | % inhibition of the extravasation of the dye [1] [%] | IC50 [2] [µM]
1 | COc1ccc(C(F)Cn2cc[nH]c2=O)cc1OC1CCCC1 (stereo not shown) | 100 | 0.017
2 | COc1ccc(C(C)CCn2cc[nH]c2=O)cc1OC1CCCC1 (stereo not shown) | 10.9 | 0.55
3 | COc1ccc(C(C)n2cc[nH]c2=O)cc1OC1CCCC1 (stereo not shown) | 35.1 | 0.15
4 | COc1ccc(CCn2cc[nH]c2=O)cc1OC1CCCC1 | 63.7 | 0.0068
5 | COc1ccc(C(C)(F)Cn2cc[nH]c2=O)cc1OC1CCCC1 (stereo not shown) | 90.4 | 0.059
6 | COc1ccc(C(C)(C)Cn2cc[nH]c2=O)cc1OC1CCCC1 | 34.0 | 0.052
7 | COc1ccc(C(C)C(C)n2cc[nH]c2=O)cc1OC1CCCC1 (stereo not shown) | 41.3 | 0.26
8 | COc1ccc(C(O)Cn2cc[nH]c2=O)cc1OC1CCCC1 (stereo not shown) | 69.3 | 0.04
